One substance from patent publication US10602680B2, “Method of internal seed disinfection by combining seed priming with vacuum infiltration” (priority 2014, dated 2020) can be followed below.

In this series the test system is triploid watermelon seeds. Nature of the series: Phytotoxicity screening by vacuum infiltration followed by matrix priming. The conditions noted are these: further screening using the same format; concentrations not given. The method, then: Step 110 involves choosing which species of seed will be sought to be disinfected. […] Thus, in step 130, a phytotoxicty screening is carried out on the chosen seeds using the chosen treatment. […] For example, the inventors screened the antibiotic Oxytetracycline using the method of adding chemicals to the water used in matrix priming (Eastin, J. A., 2000, U.S. Pat. No. 6,076,301) and the method of the present invention. Water containing 500 ppm of Oxytetracycline was used to prime triploid watermelon seeds using matrix priming. Further, the same seed was treated with vacuum infiltration using 500 ppm Oxytetracycline solutions for 6 hours, which was followed by a matrix priming using water. For a control, seed of the same lot was treated using vacuum infiltration with water, followed by matrix priming using water. Also, untreated seeds were preserved as an additional control.

Piperacillin/tazobactam: the phytotoxicity entry was “no phytotoxic effects”.
